This test has as its system metallo-beta-lactamase IMP-1 (Pseudomonas aeruginosa). Nature of the test: IMP-1 metallo-beta-lactamase inhibitors, confirmation, biochemical, epi-absorbance, hits shared with VIM-2 screen (AID 2189).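 Note: 0% = enzyme with vehicle and 100% = vehicle without enzyme.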 The conditions noted are these: purified IMP-1 enzyme, absorbance substrate hydrolysis; at 5.6 µM; active compounds read high.

This is a selection; strong and weak results do not stand in their true shares. Calls of active or inactive are those of the source. Cut-off read from the data, not from the text of the source: active = inhibition above about 4.9%; inactive = the rest.

With `Nc1cccc2c([As](=O)(O)O)cccc12`, the inhibition was inactive: 3.32%.

One may read the inhibition as the change of the read-out against control, counted positive when it falls.

Values taken from PubChem BioAssay AID2189 (The Scripps Research Institute Molecular Screening Center, 2009).
